Protein sequences, listed by entry. Tags and fused reporters are not part of them. Lines headed by an entry give the natural chain unless they say otherwise; changes in a name come on top.
UniProt O15244: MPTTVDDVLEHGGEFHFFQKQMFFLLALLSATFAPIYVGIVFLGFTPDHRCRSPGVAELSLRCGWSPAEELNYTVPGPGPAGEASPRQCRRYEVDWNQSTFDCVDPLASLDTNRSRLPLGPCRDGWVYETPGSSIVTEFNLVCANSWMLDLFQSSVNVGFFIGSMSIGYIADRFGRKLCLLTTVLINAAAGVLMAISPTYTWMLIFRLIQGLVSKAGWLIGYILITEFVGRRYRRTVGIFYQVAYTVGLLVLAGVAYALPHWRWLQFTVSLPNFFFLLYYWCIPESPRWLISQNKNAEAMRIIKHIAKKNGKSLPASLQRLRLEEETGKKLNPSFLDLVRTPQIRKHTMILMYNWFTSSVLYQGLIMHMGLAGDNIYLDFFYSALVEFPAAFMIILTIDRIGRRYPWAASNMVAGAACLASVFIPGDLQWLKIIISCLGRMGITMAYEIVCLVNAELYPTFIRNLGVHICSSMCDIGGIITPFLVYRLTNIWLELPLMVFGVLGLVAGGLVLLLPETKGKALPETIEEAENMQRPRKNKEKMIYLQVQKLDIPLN

In article PMC4556614 (PLoS ONE, 2015):

Target: OCT2 (Homo sapiens, UniProt O15244)
Test: Inhibition of OCT2-mediated [14C]metformin uptake in HEK-OCT2 cells

## Cc1nnc2n1-c1ccc(Cl)cc1C(c1ccccc1)=NC2 [Alprazolam]
human, pH 7.3, % Inhibition of OCT2-dependent MF uptake at 200 µM (mean ± SEM), test drug 200 µM, metformin 1000 μM, 3 min, net uptake HEK-OCT2 minus HEK-VC
  inhibition at 3 min, 200 µM: 88.3 ± 3.6%

## NS(=O)(=O)c1cc2c(cc1Cl)NCNS2(=O)=O [Hydrochlorothiazide]
Fig 2, S1 and S2 Figs, 20 and 200 μM
  Effect on OCT2-mediated uptake of metformin and/or MPP+ (in words): stimulated
